Experimental data from PubChem BioAssay (EPA / NIEHS).
Only a part is listed here, and it is no random draw. Results filed as inconclusive are left out. Calls of active or inactive are those of the source. Rule for the calls, unless noted: active = hit-call score of the fitted dose curve at least 0.9, where 1 is the maximum; inactive = score below 0.9.

Legend:
[1] = CCTE_Shafer_MEA_acute_spike_number: CCTE's Neural Acute Assay for Total Number of Spikes, Shafer Lab (AID 2284008)
In short: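 Rat primary cortical neurons on 48-well MEA plates, DIV 13 or 15, at 37 C. 40 min baseline then 40 min with compound (0.03-40 uM); spikes detected at 8x rms noise, expressed as percent change from baseline.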

[2] = CCTE_Shafer_MEA_acute_firing_rate_mean: CCTE's Neural Acute Assay for Mean Firing Rate, Shafer Lab (AID 2284009);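 note: analyzed for loss of signal so actives lower firing rate relative to DMSO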
In short: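 Primary rat cortical neurons on 16-electrode MEA wells were exposed on DIV 13 or 15 to compound (0.03-40 uM). Spike counts per recording time, averaged over electrodes, were compared between 40-min baseline and 40-min post-exposure recordings as percent change.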

[3] = CCTE_Harrill_HTTr_Viability_MCF7: CCTE's 6-hour Cell Viability Assessment for the High-Throughput Transcriptomics (HTTr) Platform, in MCF-7 cells cultured in DMEM + 10% fetal bovine serum, Harrill Lab (AID 2284010)
In short: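 Propidium iodide exclusion, imaged by high-content analysis, gauged viability after a six-hour exposure across eight concentrations. Cells were MCF-7 grown in DMEM with 10% fetal bovine serum; fits run in both directions against DMSO.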

[4] = CCTE_Harrill_HTTr_Apoptosis_MCF7: CCTE's 6-hour Apoptosis Assessment for the High-Throughput Transcriptomics (HTTr) Platform, in MCF-7 cells cultured in DMEM + 10% fetal bovine serum, Harrill Lab (AID 2284011)
In short: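 MCF-7 cells in DMEM + 10% FBS exposed 6 h to chemicals over an eight-point dilution series. Caspase-3/7 activation imaged by high-content CellEvent Green staining; fitted bidirectionally versus DMSO.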

[5] = CCTE_Harrill_HTTr_CellCount_MCF7: CCTE's Cell Proliferation Assessment for the High-Throughput Transcriptomics (HTTr) Platform, Harrill Lab (AID 2284012; active = hit-call score of the fitted dose curve at least 0.9, where 1 is the maximum;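 note: cells exposed to compound for six hours; intended direction is loss of nuclei count meaning fewer cells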)
In short: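 Cell count from high-content imaging of Hoechst-labeled nuclei serves as viability/growth readout. Chemicals were applied to MCF-7 cells in eight concentrations for six hours, with fitting in both directions relative to DMSO.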

[6] = CCTE_Shafer_MEA_acute_burst_number: CCTE's Neural Acute Assay for Single-Electrode Bursts, Shafer Lab (AID 2284013)
In short: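 Primary rat cortical neurons on 16-electrode MEA wells, DIV 13 or 15, exposed to compound (0.03-40 uM; ≥3 wells); 40-min recordings at 37 C before and after treatment. Burst count expressed as percent change from baseline, DMSO as negative control.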

[7] = CCTE_Shafer_MEA_acute_burst_duration_mean: CCTE's Neural Acute Assay for Mean Burst Duration, Shafer Lab (AID 2284014);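 note: hits are decreases in mean burst duration relative to DMSO controls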
In short: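 Mean burst duration was compared between a 40 min baseline and a 40 min recording in the presence of compound (0.03-40 uM, 37 C), giving percent change per well. Cultures were rat cortical neurons at DIV 13 or 15; wells needed ≥10 active electrodes.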

[8] = CCTE_Shafer_MEA_acute_per_burst_spike_number_mean: CCTE's Neural Acute Assay for Average Number of Spikes Per Burst, Shafer Lab (AID 2284015);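 note: hits are decreases in mean spikes per burst versus baseline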
In short: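 Percent change in mean spikes per single-electrode burst is compared between a 40 min baseline and a 40 min recording with compound (0.03-40 uM). Cultures were rat cortical neurons on MEA plates at DIV 13 or 15, recorded at 37 C, with DMSO as the negative control.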

[9] = CCTE_Shafer_MEA_acute_interburst_interval_mean: CCTE's Neural Acute Assay for Mean Interburst Interval, Shafer Lab (AID 2284016);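 note: percent change of mean interburst interval versus each well's own pre-dose baseline; curves fitted for decrease in interburst interval relative to DMSO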
In short: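 Percent change in mean single-electrode interburst interval was calculated per well from 40 min recordings before and after compound (0.03-40 uM). Recordings were made at 37 C on rat cortical cultures at DIV 13 or 15, with spikes detected at 8x rms threshold.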

[10] = CCTE_Shafer_MEA_acute_burst_percentage_mean: CCTE's Neural Acute Assay for Percentage of Spikes in a Burst, Shafer Lab (AID 2284017)
In short: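 Well-level mean burst percentage from a 40-min recording after compound (0.03-40 uM) expressed as percent change from a 40-min baseline at 37C. Cultures: primary rat cortical neurons on MEA, dosed on DIV 13 or 15; fitted downward relative to DMSO.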

Measured: outcome

O=[N+]([O-])c1ccccc1[N+](=O)[O-]
inactive: all assays above
